Binding of CDR-mutated scFvs to a peptide of the spike HR2 region

Data: MIT Lincoln Laboratory AlphaSeq set, Engelhart et al. 2022, doi:10.1038/s41597-022-01779-4, as distributed in FLAb.

The target is the same throughout: PDVDLGDISGINAS, from the HR2 region of SARS-CoV-2 spike.

Parent scFv Ab-91: VL joined to VH by a (GGGGS)3 linker. Changes lie in the heavy chain CDRs alone.
VL: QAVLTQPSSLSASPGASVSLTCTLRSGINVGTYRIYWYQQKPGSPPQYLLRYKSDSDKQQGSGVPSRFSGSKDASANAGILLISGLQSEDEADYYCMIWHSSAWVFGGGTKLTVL
VH: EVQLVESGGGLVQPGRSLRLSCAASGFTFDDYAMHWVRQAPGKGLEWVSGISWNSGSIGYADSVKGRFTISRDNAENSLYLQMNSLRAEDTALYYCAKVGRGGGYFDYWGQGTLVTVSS

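Phage display of a naive human antibody library on the peptide gave the parent. The library (AAYL51) carries one to three amino acid substitutions per variant, with no insertions or deletions. Affinity was read by AlphaSeq, a pooled yeast mating assay with surface-displayed partners. After mating in shaken culture at 30 °C for 16 h, diploids were selected and their barcode pairs sequenced. Read counts were normalised to the haploid input and turned into Kd by a linear fit to BCL2-family pairs of known affinity, for each replicate. There are three technical replicates.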

The parent's heavy chain CDRs are GFTFDDYAMH, GISWNSGSIGYADSVK, VGRGGGYFDY; each variant's own CDRs replace them letter for letter. Affinities are written as log10 Kd with Kd in nM; a lower number is a better binder. "nd" marks a missing value. The strain was present, yet no cells mated with the target were sequenced in that replicate, which points to weak or no binding. Three control strains display no target. For library AAYL51, 21% of the pairings with them gave a signal, with a median of 4.54 and one signal in twenty below 3.26, so weak values seen in few replicates may be background. The control count says in how many pairings with the empty strains this scFv gave a signal, with their mean in brackets.

CDR-H1	CDR-H2	CDR-H3	log10 Kd, replicates	control signals
GFTFDDYAMH	GGSMNSGSIGYADSVK	VGRGGGYFDY	nd / nd / nd	1/9 (2.91)
GFRFDDYAMH	GISRNSGSIGYADSSK	VGRGGGYFDY	nd / 2.48 / nd	0/9
GFHTDDYAMH	GISWNSGSDGYADSVK	VGRGGGYFDY	4.14 / 4.12 / 4.52	1/9 (3.50)
NFTFDDFAMH	GISWNSGSIGYADSVV	VGRGGGYFDY	nd / nd / nd	2/9 (3.73)
GFTFDFYAMI	RISWNSGSIGYADSVK	VGRGGGYFDY	nd / nd / nd	0/9
GFTFDDYAMH	GISWNSGSIGYADRVK	VGRGGGYFVY	4.02 / 4.63 / 4.39	4/9 (4.15)
GFTFDDYAMH	GISWNSGSNGYADAMK	VGRGGGYFDY	nd / nd / nd	1/9 (2.33)
GFTFDDYAMH	GISWICGSIDYADSVK	VGRGGGYFDY	nd / nd / nd	1/9 (4.22)
GFTFDDYAMH	GIQWNSGSIGYADSVK	VGRGGGYFAY	3.95 / 4.79 / 4.38	4/9 (5.31)
GFTFFDYAMH	GISWQSGSVGYADSVK	VGRGGGYFDY	nd / 2.58 / 2.79	3/9 (3.72)
GFMLDDYAMH	GISWNSGSIGYADSVK	VGRGGGYFDR	1.19 / 1.29 / 0.66	1/9 (3.78)
GFTFDDYAMH	GISWNSGSIGYADSVC	VGFGGTYFDY	4.01 / 5.23 / nd	6/9 (4.69)
GFTFQMYAMH	GISWNSGSIGYHDSVK	VGRGGGYFDY	1.67 / 1.53 / 1.22	0/9
GFTFDIYAMH	GISWNSGSIGYADQVK	VGEGGGYFDY	nd / 4.43 / nd	2/9 (4.05)
TFTFDDYAMH	GISWNFGSIGYADSVK	VGRGGGYTDY	4.82 / nd / nd	0/9
GFTFDDYAMH	GISQNSGAIGYADSVK	VGRGGGYFDY	2.91 / 2.50 / 2.32	2/9 (3.94)
GFTFDDYVMH	GISPNSGSIGYADSVR	VGRGGGYFDY	nd / nd / 3.84	2/9 (4.39)
GFTFDDRCMH	GISWNSGSIGYADSVK	VGRGGGYFDY	nd / 5.73 / 3.65	2/9 (4.01)
GFTFDDYAMH	GISWNSGSPGYLDSVK	VGRGGGYDDY	4.52 / nd / nd	2/9 (2.96)
SFTFPDYAMH	GISWQSGSIGYADSVK	VGRGGGYFDY	nd / nd / nd	0/9
GFTHDDYAMH	GISWNSGSIGYADSVK	VGVGGLYFDY	nd / 3.52 / nd	0/9
GFTFVDYQMH	GISWNSGSRGYADSVK	VGRGGGYFDY	5.34 / nd / nd	0/9
GFTFDPYAMH	GISWNSGSHGYADSVK	VGVGGGYFDY	nd / nd / nd	0/9
GFTFDDYAMH	GISWNSDSIGYADSVK	VGKGGGYFIY	0.70 / 0.74 / 0.10	4/9 (5.08)
GFTFDDYAMH	GICRNSGSIGYADSVK	VGRGGGYFDA	6.50 / nd / 5.60	4/9 (5.42)
GFTFDDYAMH	GNSWNSGSIGYADSVK	VGRFGGYLDY	4.69 / 4.62 / nd	1/9 (3.51)
GFTFDDYAMH	GQWWNSGSIGYADSVK	VGGGGGYFDY	5.09 / 5.85 / nd	5/9 (5.39)
GFTFDDYAMH	GISFNSGSIGYADSVC	VGFGGGYFDY	3.68 / 3.67 / 3.06	2/9 (3.92)
GFTFDDYAMH	NISSNSGSIGYAMSVK	VGRGGGYFDY	4.75 / nd / nd	2/9 (5.76)
GFTFDDYAMH	GISWNSGSIGYADSVK	VCRGGPGFDY	3.98 / 4.07 / nd	4/9 (4.68)
GFTEDDYAMH	GIAWNSGSIGYADQVK	VGRGGGYFDY	4.84 / nd / nd	2/9 (3.88)
EFTFDDDAMH	GISWNSGSIGYADSVK	VGRGGGYWDY	nd / nd / 5.21	5/9 (4.93)

A selection of 4 entries from above:

CDR-H1,CDR-H2,CDR-H3,"log10 Kd, replicates",control signals
GFMLDDYAMH,GISWNSGSIGYADSVK,VGRGGGYFDR,1.19 / 1.29 / 0.66,1/9 (3.78)
GFTFDDYAMH,GISWNSGSPGYLDSVK,VGRGGGYDDY,4.52 / nd / nd,2/9 (2.96)
GFTFDPYAMH,GISWNSGSHGYADSVK,VGVGGGYFDY,nd / nd / nd,0/9
GFTFDDYAMH,GISFNSGSIGYADSVC,VGFGGGYFDY,3.68 / 3.67 / 3.06,2/9 (3.92)